{"source": "paper PMC7721803", "about": "“Development of a penem antibiotic against Mycobacteroides abscessus” (Communications Biology, 2020)", "set-up": "species or system BALB/c mice", "settings": "female, BALB/c, mouse, in vivo, 25 mg/kg, 1 h", "procedure": "All procedures involving mice were approved by the Animal Care and Use Committee of Johns Hopkins University. T405 was dissolved in PBS. Uninfected female BALB/c mice, aged 6–7 weeks, were administered a single 25 mg/kg dose of T405 in 100 µL subcutaneously, either alone or in combination with probenecid (250 mg/kg) or cilastatin (25 mg/kg). Blood was sampled from three mice per group per time point by mandibular vein puncture or cardiac puncture at the following time points: 5, 15, 30, 60, 120, and 240 min post-dose. Plasma was separated in heparin-containing tubes and frozen. T405 concentrations in plasma were determined using a validated LC/MS-MS method developed in the Analytical Pharmacology Core of the Sidney Kimmel Comprehensive Cancer Center at Johns Hopkins University School of Medicine. Concentration–time data were analyzed by standard non-compartmental and compartmental techniques using WinNonlin (version 7.0; Pharsight, Mountain View, CA). A one-compartmental model was used to perform simulations to predict the plasma concentration–time profile after subcutaneous doses of 150, 300, and 450 mg/kg, alone and in combination with probenecid. A plasma free drug fraction of 2% of the total drug concentration was included in the simulations."}
{"smiles": "C[C@@H](O)C1C(=O)N2C(C(=O)O)=C(SC3CN(C4=NCCS4)C3)SC12", "note": "(stereo in doubt) [T405]", "values": [{"measurement": "T405 concentration in blood", "result": 65.6, "unit": "ng/mL"}]}
